Data as given in patent US20140301947A1, “METHODS TO PREDICT BINDING AFFINITY OF TSPO IMAGING AGENTS TO TSPO” (IMPERIAL INNOVATIONS LIMITED, priority 2011, published 2014).

Key:
TSPO [1] = molecular target: T1, TSPO (Homo sapiens, UniProt P30536); settings: used to generate Ki; read-out: Kd for [3H]PK11195; cited from earlier work
TSPO [2] = molecular target: TSPO (Homo sapiens, UniProt P30536, T147A); test: Competition binding with [3H]PK11195 in human brain (method of J Nucl Med 2011;52:24-32); set-up: from tissue; host or cells: human brain (membrane preparation, by the cited method); settings: Ki HAB, high affinity binders, human brain; nM
Description: (§1) Thus, for example, the binding affinity of the compound may be determined in tissue derived from a HAB and in tissue derived from a LAB. An appropriate method may comprise the following steps: • obtain samples from human volunteers of tissue which contains TSPO (for example brain (for example for archive samples) or platelets (for example from blood)).
(§2) In more detail, as an example, a 48 well plate may be used, for example with 8-12 different concentrations of experimental drug for each experiment (be it the radiolabelled drug for saturation studies or the un-radiolabelled drug for competition studies). Concentrations may range from around 0.1 nM, increasing in roughly half logs (ie 0.1 nM, 0.3 nM, 1 nM, 3 nM etc) up to around 10,000 nM. 3-4 wells may be used for each concentration and the average taken to increase the precision around the estimate for each data point. The amount of tissue material required depends on how much TSPO is in the chosen tissue. For brain ˜100 micrograms of protein in each well (500 microlitres) may typically be used, giving a protein concentration of ˜200 micrograms/ml. Similar amounts may be used for platelets. For a tissue with very high TSPO levels (eg adrenal gland) a lot less protein would be needed.

TSPO [3] = molecular target: T1, TSPO; test: as above; set-up: from tissue; host or cells: human brain (membrane preparation, by the cited method)
Description: as §1, §2

TSPO [4] = test: as above
Description: as §1, §2

TSPO [5] = molecular target: T1, TSPO; test: as above; set-up: Ki MAB; Vinpocetine Ki, MAB; settings: read-out: Ki MAB; mixed affinity binders, single value, human brain
Description: as §1, §2

## CCC(C)N(C)C(=O)c1cc2ccccc2c(-c2ccccc2Cl)n1 (stereo not drawn) [PK11195, 1-(2-Chlorophenyl)-N-methyl-N-(1-methylpropyl)-3-isoquinolinecarboxamide]
TSPO [1]
  Kd: 29.2 nM
TSPO [2]
  Ki: 28.3 ± 4 nM
TSPO [3]; Ki LAB, low affinity binders, human brain
  Ki: 22.3 ± 2.2 nM
TSPO [3]; affinity for the "Low Affinity receptor", grouping of ligands into 3 distinct affinities
  Ki: < 31 nM
TSPO [4]
  LAB/HAB: 0.8
  ratio of specific signal, HAB: 0.8
  ratio of specific signal, LAB: 1
  ratio of specific signal, MAB: 0.9
TSPO [5]
  Ki: 23.6 ± 5.5 nM

Where two headings read alike, the source gives them in different places.
